Data: patent publication US20090143391A1, “Aryl and heteroaryl fused imidazo [1,5-a] pyrazines as inhibitors of phosphodiesterase 10” (priority 2007, published 2009)

The chains behind the UniProt entries cited, without tags or fusion partners. Residues count along the entry.
UniProt A0A287B941, 1-1069: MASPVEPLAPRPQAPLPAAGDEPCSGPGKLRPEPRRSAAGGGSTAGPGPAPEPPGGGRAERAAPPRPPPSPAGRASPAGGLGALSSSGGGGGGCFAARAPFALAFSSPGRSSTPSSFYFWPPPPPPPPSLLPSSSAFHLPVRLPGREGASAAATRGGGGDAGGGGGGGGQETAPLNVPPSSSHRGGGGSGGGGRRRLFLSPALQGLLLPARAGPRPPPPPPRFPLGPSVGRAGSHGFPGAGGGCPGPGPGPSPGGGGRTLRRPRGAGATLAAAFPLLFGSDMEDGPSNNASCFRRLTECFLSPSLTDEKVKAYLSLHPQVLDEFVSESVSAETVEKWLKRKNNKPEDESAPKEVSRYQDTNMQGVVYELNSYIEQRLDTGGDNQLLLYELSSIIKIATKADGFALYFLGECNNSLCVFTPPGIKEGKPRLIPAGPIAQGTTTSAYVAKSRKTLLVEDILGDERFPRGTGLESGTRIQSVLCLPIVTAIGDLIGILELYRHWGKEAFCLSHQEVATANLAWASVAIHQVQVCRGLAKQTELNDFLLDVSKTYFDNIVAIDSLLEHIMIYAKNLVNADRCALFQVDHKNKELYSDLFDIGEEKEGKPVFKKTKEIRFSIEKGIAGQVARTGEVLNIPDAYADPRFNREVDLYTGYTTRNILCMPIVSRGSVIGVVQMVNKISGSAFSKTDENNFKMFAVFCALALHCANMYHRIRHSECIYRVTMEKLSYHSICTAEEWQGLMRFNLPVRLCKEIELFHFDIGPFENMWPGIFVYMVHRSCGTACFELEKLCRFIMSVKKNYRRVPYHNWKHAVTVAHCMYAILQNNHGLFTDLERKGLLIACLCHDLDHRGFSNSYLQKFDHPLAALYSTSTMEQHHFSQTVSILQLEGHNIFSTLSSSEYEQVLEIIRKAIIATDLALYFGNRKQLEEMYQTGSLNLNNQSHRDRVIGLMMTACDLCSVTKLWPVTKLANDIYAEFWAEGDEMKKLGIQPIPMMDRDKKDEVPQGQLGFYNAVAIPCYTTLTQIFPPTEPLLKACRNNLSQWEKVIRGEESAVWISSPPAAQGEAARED
UniProt Q9Y233, 1-779 isoform 1: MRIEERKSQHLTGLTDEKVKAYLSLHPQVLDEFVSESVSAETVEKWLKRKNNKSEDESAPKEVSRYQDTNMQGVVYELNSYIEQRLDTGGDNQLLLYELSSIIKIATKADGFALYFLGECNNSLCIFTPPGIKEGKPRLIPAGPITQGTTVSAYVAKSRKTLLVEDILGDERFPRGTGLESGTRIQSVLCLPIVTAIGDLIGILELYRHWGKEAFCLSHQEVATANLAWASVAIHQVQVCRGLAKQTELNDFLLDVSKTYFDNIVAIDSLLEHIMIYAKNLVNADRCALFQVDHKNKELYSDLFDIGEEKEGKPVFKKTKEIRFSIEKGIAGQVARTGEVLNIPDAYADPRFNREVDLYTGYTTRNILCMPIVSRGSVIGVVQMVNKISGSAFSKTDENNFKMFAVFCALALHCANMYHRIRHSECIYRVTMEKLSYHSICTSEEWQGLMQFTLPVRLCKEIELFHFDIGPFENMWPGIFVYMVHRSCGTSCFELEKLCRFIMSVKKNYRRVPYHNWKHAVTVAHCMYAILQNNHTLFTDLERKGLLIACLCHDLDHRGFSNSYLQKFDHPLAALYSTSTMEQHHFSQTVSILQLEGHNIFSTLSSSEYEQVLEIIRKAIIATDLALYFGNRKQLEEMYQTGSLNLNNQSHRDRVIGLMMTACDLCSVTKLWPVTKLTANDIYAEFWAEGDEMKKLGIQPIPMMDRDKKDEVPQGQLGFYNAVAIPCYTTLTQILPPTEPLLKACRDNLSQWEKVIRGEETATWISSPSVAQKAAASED

Tests used:
[1] = biological target: PDE10 from pig striatum (Sus scrofa, UniProt A0A287B941); test: Inhibition of PDE10 from pig striatum (Method A / Method B), [3H]-cAMP SPA; type: biochemical; conditions: read-out: PDE10 inhibition IC50 PDE10 pig
Procedure: Striatum from male Wistar rats (180-200 g), male hybrid pigs (150 kg) and male guinea pigs (CRL (HA), 500 g) respectively were collected and frozen at −70° C. […] The supernatant is called the cytosolic fraction and was removed and stored on ice. The pellet was resuspended in the same buffer, but containing 1% Triton and incubated for 45 min at 4° C. Both fractions were independently applied onto a 5 ml Hi Trap™ QHP column at the Äkta-FPLC. After washing the columns the bound PDE protein was eluted with an increasing sodium chloride gradient (0 mM-500 mM sodium chloride) in 50 mM Tris/Mg-buffer at 4° C. for the cytosolic fraction and in the presence of 1% Triton for the membrane fraction. […] The fractions with PDE10-activity were pooled and frozen in aliquots until use at −20° C. PDE10 activity was determined in a one step procedure in microtiter plates. The reaction mixture of 100 μl contained 50 mM Tris-HCl/5 mM MgCl2 buffer (pH=7.4) (Sigma, Deisenhofen, Germany; Merck, Darmstadt, Germany) 0.1 μM [^3H]-cAMP (Amersham, Buckinghamshire, UK) and the enzyme. Nonspecific activity was tested without the enzyme. The reaction was initiated by addition of the substrate solution and was carried out at 37 ° C. for 30 minutes. Enzymatic activity was stopped by addition of 25 μl YSi-SPA-beads (Amersham-Pharmacia). One hour later the mixture was measured in a liquid scintillation counter for microtiter plates (Microbeta Trilux). To pipette the incubation mixture a robot Biomek (Fa. Beckman) is used. […] For the test with cGMP 500 nM of this substrate was used. The optimal amount of enzyme in the assay has been determined and optimised for each enzyme preparation and substrate separately before using the enzyme in compound testing. For determination of IC50 values the Hill-plot, 2-parameter-model, was used. […] Striatum from male hybrid pigs (150 kg) were collected and frozen at −70° C. […] The supernatant was removed and the pellet was resuspended in the same buffer, but containing 1% Triton and incubated for 45 min at 4° C. The membrane fraction was applied onto a 5 ml Hi Trap™ QHP column at the Äkta-FPLC. After washing the column the bound PDE protein was eluted with an increasing sodium chloride gradient (0 mM-500 mM sodium chloride) in 50 mM Tris/Mg-buffer at 4° C. in the presence of 1% Triton. […] The fractions with PDE10-activity were pooled and frozen in aliquots until use at −20° C. PDE10 activity was determined in a one step procedure in microtiterplates. The reaction mixture of 100 μl contained 50 mM Tris-HCl/5 mM MgCl2 buffer (pH=7.4) (Sigma, Deisenhofen, Germany; Merck, Darmstadt, Germany) 0.1 μM [3H]-cAMP (Amersham, Buckinghamshire, UK) and the enzyme. Nonspecific activity was tested without the enzyme. The reaction was initiated by addition of the substrate solution and was carried out at 37° C. for 30 minutes. Enzymatic activity was stopped by addition of 25 μl YSi-SPA-beads (Amersham-Pharmacia). One hour later the mixture was measured in a liquid scintillation counter for microtiterplates (Microbeta Trilux). To pipette the incubation mixture a robot Biomek (Fa. Beckman) is used. […] The optimal amount of enzyme in the assay has been determined and optimised for each enzyme preparation before using the enzyme in compound testing. For determination of IC50 values the Hill-plot, 2-parameter-model, was used.

[2] = biological target: human recombinant PDE10A (Homo sapiens, UniProt Q9Y233); test: Inhibition of human recombinant PDE10A (Method B), [3H]-cAMP SPA; type: biochemical; conditions: read-out: PDE10 inhibition IC50 PDE10A human

| IC50 [1] [nM] | IC50 [2] [nM] | Compound |
| --- | --- | --- |
| 10 to 100 |  | CCCc1nc(C)c2c(Cl)nc3ccccc3n12 |
| 10 to 100 |  | CCCc1nc(C)c2c(Cl)nc3ccc(N4CCCCC4)cc3n12 |

Continued, compound first:

| Compound | IC50 [1] [nM] | IC50 [2] [nM] |
| --- | --- | --- |
| CCc1nc(C)c2c(Cl)nc3ccc(F)cc3n12 | 10 to 100 |  |
| CCCc1nc(C)c2c(Cl)nc3c(OCC(F)(F)F)cc(OCC(F)(F)F)cc3n12 | > 100 | > 100 |
| Cc1nc(-c2ccccc2Cl)n2c1c(Cl)nc1ccc(F)cc12 | < 10 |  |
